How the values were obtained:
Type in all cases: cell-based, human
SK-BR-3 cells [1] = assay: Proliferation assay (MTS), SK-BR-3; settings: 5 days
Protocol: (§1) Cells were plated in 96 well plates at a density of 2,500 cells per well and incubated overnight. […] Antibodies were used at a concentration of 50 nM unless otherwise indicated. Dimethyl sulfoxide or phosphate buffered saline (PBS) were used as vehicle controls for lapatinib or HRG-β1/antibodies, respectively. After 5 days of incubation in a 37° C. 5% CO2 incubator, cell proliferation was quantitated using CellTiter 96 AQeous One Solution Proliferation Assay kit (Promega, catalog no. G3580) according to the manufacturer's instructions.

BT-474 cells = assay: Proliferation assay (MTS), BT-474; settings: 5 days
Protocol: as §1

HCC1419 cells = assay: Proliferation assay (MTS), HCC1419; settings: 5 days
Protocol: as §1

SK-BR-3 cells [2] = assay: Immunoblotting of cell lysates, SK-BR-3; settings: 50 nM antibody + heregulin 6.25 nM, 24 hours
Protocol: Cells cultured to near confluence in 6 well plates were treated with lapatinib, HRG-β1 or antibodies as for proliferation assays. Following one or 24 hours incubation, cells were lysed using RIPA buffer (50 mM Tris, 150 mM NaCl, 0.5% sodium deoxycholate, 1% Triton X-100, 0.1% sodium dodecyl sulfate, 2 ug/mL aprotinin, 2 ug/mL leupeptin, 1 ug/mL pepstatin A, and 0.4 mg/mL pefabloc SC PLUS). Lysates were centrifuged for 20 minutes at 14,600 rpm at 4° C. and supernatants were collected. Protein concentrations in each lysate were determined using the BCA protein assay reagent (Pierce, catalog no. 23223). Total lysates were fractionated by SDS-PAGE and transferred onto polyvinylidene difluoride (PVDF) membranes (Millipore, catalog no. IPVH00010) or nitrocellulose membranes (Bio-Rad, catalog no 162.0145). Membranes were incubated with 5% bovine serum albumin in Tris-buffered saline with 0.1% Tween (TBST, pH 8.0) for 1 hour following transfer to block non-specific binding sites. Blocked membranes were incubated with primary antibodies overnight at 4° C. with agitation. […] Following incubation with secondary antibodies for 1 hour and washing, bound secondary antibody was detected using chemiluminescent detection regent (GE Healthcare, catalog no. RPN 2209/AF).

[3] = 50 nM antibody + 1 μM lapatinib + heregulin 6.25 nM
[4] = 50 nM antibody, no heregulin, no lapatinib
[5] = 50 nM antibody + heregulin 6.25 nM

trastuzumab [reference compound]
proliferation in the presence of heregulin and lapatinib (SK-BR-3 cells [1]; [3]): did not reduce proliferation | proliferation (SK-BR-3 cells [1]; [4]): higher anti-proliferative activity | proliferation in the presence of heregulin and lapatinib (BT-474 cells; [3]): did not reduce proliferation | proliferation in the presence of heregulin (BT-474 cells; [5]): ablated the inhibitory effects | proliferation (BT-474 cells; [4]): higher anti-proliferative activity | proliferation in the presence of heregulin and lapatinib (HCC1419 cells; [3]): did not reduce proliferation | proliferation in the presence of heregulin (HCC1419 cells; [5]): ablated the inhibitory effects | pAkt levels in the presence of heregulin (SK-BR-3 cells [2]): no change
